Measurements reported in patent US20230293639A1, “SYSTEMS, DEVICES, COMPOSITIONS, AND METHODS FOR TREATING DIABETES” (Abvance Therapeutics, Inc., priority 2020, published 2023).

Legend:
[1] = not given; remark: listed apart in the source

In the case of insulin, the solubility (5 mM glutamic acid with 1% glycine, 0.5% sucrose, 0.005% Tween 20, pH 4.4) is reported as “less than 3 mg/mL”, the solubility (10 mM glutamate buffer with 1% CHAPS, pH 4.4) is reported as “greater than 4 mg/mL” and the solubility (10 mM glutamate buffer with 5% nicotinamide, pH 5.1) is reported as “less than 3 mg/mL”. The solubility (10 mM glutamic acid with 0.67% CHAPS and 1.67% nicotinamide, pH 4.7) was “greater than 4 mg/mL”, the solubility (10 mM glutamic acid with 1% CHAPS, pH 3.9) was “greater than 4 mg/mL” and the solubility (10 mM glutamic acid with 1.67% nicotinamide, pH 4.5) was “less than 3 mg/mL”. For the same substance, the solubility (10 mM glutamic acid with 5% nicotinamide, pH 4.9) was “less than 3 mg/mL”, the solubility (20 mM glycine, pH 3.5) was at most 3230 µg/mL and the solubility (30 mM glutamic acid, pH 3.3) was 3500 µg/mL. For the same substance, the solubility (50 mM PBS pH 7.03, no excipient) was “less than 2.5 mg/mL”, the solubility (50 mM PBS pH 8.03, no excipient) was “greater than 5 mg/mL” and the solubility (50 mM glutamine with 6.75% HP-β-CD and 3% sucrose, pH 4) was at most 3230 µg/mL. The solubility (50 mM glycine with 6.75% HP-β-CD and 3% sucrose, pH 4) was at most 3230 µg/mL, the solubility (50 mM histidine with 1% CHAPS, pH 4) was 3530 µg/mL and the solubility (AB with 50 mM glutamine, 50 mM arginine, pH 4.94) was “less than 1 mg/mL”. For the same substance, the solubility (AB with 50 mM glutamine, 50 mM histidine, pH 4.93) was “less than 1 mg/mL”, the solubility (AB with 1% CHAPS, pH 4.24) was “greater than 6 mg/mL” and the solubility (AB with 5% nicotinamide, pH 4.70) was “greater than 4 mg/mL”. For the same substance, the solubility (PBS with 50 mM cysteine, pH 7.4) was “less than 2 mg/mL”, the solubility (PBS with 50 mM histidine, pH 7.69) was “greater than 6 mg/mL” and the solubility (PBS with 1% CHAPS, pH 7.60) was “greater than 6 mg/mL”. For the same substance, the solubility (PBS with 1% poloxamer 188, pH 7.7) was “less than 2 mg/mL”, the solubility (PBS with 5% nicotinamide, pH 7.53) was “greater than 6 mg/mL” and the solubility (PBS with 5% vitamin E TPGS, pH 7.32) was “less than 2 mg/mL”. The solubility (PBS with 5% vitamin E TPGS, pH 7.8) was “less than 2 mg/mL”, the solubility (PBS with 10% HP-β-CD, pH 7.42) was “less than 2 mg/mL” and the solubility (PBS with 10% M-β-CD, pH 7.55) was “less than 2 mg/mL”. For the same substance, the solubility (Tris buffer (TB) pH 8.03) was “greater than 5 mg/mL”, the solubility (acetate buffer (AB) pH 3.65, no excipient) was “greater than 5 mg/mL” and the solubility (acetate buffer (AB) pH 4.02, no excipient) was “greater than 5 mg/mL”. For the same substance, the “solubility (target solubility achieved)” value (aqueous buffer systems comprising less than 30% co-solvents) was “greater than 3.5 mg/mL”, the solubility (citrate buffer (CB) pH 5.02) was “less than 3 mg/mL” and the solubility (citrate buffer (CB) pH 6.01) was “less than 3 mg/mL”. The solubility (each of the arginine and glycine solutions, FIG. 7) was at most 3230 µg/mL, the solubility (phosphate buffer (PB) pH 6.04) was “less than 3 mg/mL” and the solubility (phosphate buffer (PB) pH 7.03) was “less than 3 mg/mL”. The solubility (phosphate buffer (PB) pH 8.03) was “greater than 5 mg/mL”, the “solubility (up to)” value (various acidic glutamate buffer solutions pH 3.5-5.1 with excipient, FIG. 5) was at most 5000 µg/mL and the “solubility (up to)” value (various aqueous solutions of glutamic acid, glycine or histidine with excipient, FIG. 6) was at most 3500 µg/mL. For the same substance, the “solubility (up to)” value (various solutions of arginine (pH 7.7) or glycine (pH 3.5-7.8) with excipient, FIG. 7) was at most 3500 µg/mL, the solubility ([1]; 33.3% NMP and 66.7% of 50 mM glycine with 1% CHAPS) was 2360 µg/mL and the solubility ([1]; 33.3% NMP, 33.3% of 2% CHAPS, and 33.4% of 30 mM glutamic acid) was 3470 µg/mL. For the same substance, the solubility ([1]; DMSO (non-aqueous solvent)) was “greater than 8 mg/mL”, the solubility ([1]; NMP (non-aqueous solvent)) was “greater than 8 mg/mL” and the solubility ([1]; each of the acidic solvents comprising 0-33% HCl, 33-67% glutamic acid, 0-67% DMSO) was “greater than or equal to 2.67 mg/mL”. For the same substance, the solubility ([1]; glycerol (non-aqueous solvent)) was “less than 2 mg/mL”, the solubility ([1]; propylene glycol (non-aqueous solvent)) was “less than 2 mg/mL” and the “solubility (up to)” value ([1]; solvents comprising methanol, glycine pH 4, glutamic acid pH 3.3, NMP, CHAPS, FIG. 9) was at most 3300 µg/mL.

Where two headings read alike, the source gives them in different places.
